Values of other authors as cited in US8853185B2, “Coferons and methods of making and using them” (Cornell University, priority 2008, dated 2014).

Biological target: T1, SMAC/DIABLO (Homo sapiens, UniProt Q9NR28)
T1 sequence (Q9NR28 22-239): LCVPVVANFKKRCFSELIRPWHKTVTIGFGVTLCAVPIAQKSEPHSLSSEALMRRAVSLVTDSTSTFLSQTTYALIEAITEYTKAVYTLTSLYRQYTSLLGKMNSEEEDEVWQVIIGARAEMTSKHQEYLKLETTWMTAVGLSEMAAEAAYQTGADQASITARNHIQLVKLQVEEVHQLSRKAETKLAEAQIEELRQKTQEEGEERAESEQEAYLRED
Settings: read-out: DISSOCIATION CONSTANT (Kd); cited from earlier work

In the case of XIAP: binding partner of SMAC/DIABLO, the Kd is listed as 800 nM.
